Apparent affinities of Ab-14 variants for a coronavirus HR2 peptide

Antigen: PDVDLGDISGINAS, a 14-residue peptide of the SARS-CoV-2 spike HR2 region.

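The parent was found by panning a naive human phage display library on the peptide. This is the validation round: designs drawn from the data on random variants, tested in the same kind of assay. Several design methods are mixed in this list. In AlphaSeq, yeast of one mating type display the scFv and yeast of the other type display the target. After mating in shaken culture at 30 °C for 16 h, diploids were selected and their barcode pairs sequenced. A regression on co-assayed BCL2-family reference pairs converts the normalised counts of each replicate to an apparent Kd. There are six technical replicates.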

The variants keep the light chain, the linker and the frameworks of Ab-14 (scFv order VH, a 15-residue (Gly4Ser)3 linker, VL).
VH: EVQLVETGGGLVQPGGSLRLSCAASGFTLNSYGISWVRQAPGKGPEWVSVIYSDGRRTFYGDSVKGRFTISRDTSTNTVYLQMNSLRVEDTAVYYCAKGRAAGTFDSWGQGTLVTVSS
VL: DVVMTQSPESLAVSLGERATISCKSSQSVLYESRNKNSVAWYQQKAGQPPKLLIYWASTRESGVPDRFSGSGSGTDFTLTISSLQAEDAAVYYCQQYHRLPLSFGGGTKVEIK

Variants are written as CDR1, CDR2 and CDR3 of the heavy chain (limits as in the source). Parent: GFTLNSYGIS, VIYSDGRRTFYGDSVK, GRAAGTFDS.
Variants here have at most six changes.
Each Kd is an estimate from the mating assay, the geometric mean of the replicates in which the pair was seen; lower is stronger.
"no signal" marks a missing value. The strain was present, yet no cells mated with the target were sequenced in any replicate, which points to weak or no binding.

The variant GFHLNSYGIS | VIYSDGRRTFYADSVK | GRMAGTFDS showed 22 nM (6 of 6 replicates). The variant GFSLNSYGIS | VIYSDGRRTFYTDSVK | GKTAGTFDS gave 3.4 nM (6 of 6 replicates). The variant GFSLNMYGIS | VIYSDGRREFYSDSVK | GRAPGTFDS showed 22 nM (4 of 6 replicates). The variant GFDLNSYGIS | VIYSDGRRTFYLDSVK | GKAAGTFDS showed 6.2 nM (6 of 6 replicates). The variant GFTLNEYGIS | VIYSDGRRTFYGDSVK | GRHAGTFWS gave 86 nM (1 of 6 replicates). With GFELNSYGIS | VIYSDGRRTFYTDSVK | GQVAGTFDS the result was 1.5 nM (6 of 6 replicates). The variant GFDLNSYGIS | VIYSDGRRTFYGDAVK | GRIAGTFDS gave 3.2 nM (6 of 6 replicates). For GFDLNEYGIS | VIYSDGRRTFYGDAVK | GRAAGTFDM, the assay gave 4.3 nM (6 of 6 replicates).

For GFTLNSYGIR | VIYSDGRRTFYGDSVK | GNAAGTFDS, the assay gave no signal (0 of 6 replicates). The variant GFTLNDYGIS | VIYSDGRRTFYGDSVK | GRAAGLFDT showed no signal (0 of 6 replicates). The variant GFSLNDYGIS | VIYSDGRRTFYGDSVK | GRAALTFDT gave no signal (0 of 6 replicates). For GFDLNEYGIS | VIYADGRRTFYSDSVK | GELAGTFDS, the assay gave 230 pM (6 of 6 replicates). With GFTLNSYGIS | VDYSDGRRCFYGDSVK | GRAAGTFDS the result was no signal (0 of 6 replicates). The variant GFTLNDYDIS | VAYSDGRRTFYGDSVK | GRAALTFIS showed no signal (0 of 6 replicates). The variant GFTLNSYGES | VIYATGRRTFYGDSVK | GRAAGTNKS showed no signal (0 of 6 replicates). For GFSLNQYGIS | VIYSDGRRTFYADSVK | GRAAGTFDS, the assay gave 870 pM (6 of 6 replicates).

For GFQLNSYGIS | VIYSDGQRTFYVDSVK | GRTAGTFDS, the assay gave 180 nM (5 of 6 replicates). With GFTLNEYGIS | VIYSDGRRTFYGDSVK | GRQAGTFWS the result was no signal (0 of 6 replicates). For GFTLNSYGIS | VIYSDGKRTFYSDSVE | GRTAGTFDS, the assay gave 17 nM (6 of 6 replicates). The variant GFTLNSYGIS | VIYSDGRRTFYIDSVK | GGAAGTFDT showed 26 nM (5 of 6 replicates). The variant GFELNNYGIS | VIYSDGRRTFYGDSVK | GQAAGTFDS showed 2.7 nM (2 of 6 replicates). For GFSLNSYGIS | VIYSDGRRTFYADSVK | GSMAGTFDS, the assay gave 2.8 nM (6 of 6 replicates). For GFTLNSYGIS | VIYSDGRRCFYGDSVK | GDAAGTFDS, the assay gave 22 nM (2 of 6 replicates). The variant GFGLNEYGIS | VIYSDGRRTFYNDSVK | GRAALNFDS gave no signal (0 of 6 replicates).

The variant GFWLNEYGIS | VIYSDGRRTFYGDSVK | GRSAGTFDS showed no signal (0 of 6 replicates). The variant KFSLNDYGIS | VIYSDGRRTFYGDSVK | GQTAGTFDS gave 3.7 nM (6 of 6 replicates). With GFTLSDYGIS | VIYSDGRRTFYGDSVK | GRAAGTFDS the result was 920 pM (4 of 6 replicates). The variant GFDLNCYGIS | VIYSDGRRTFYGDSVK | GQTAGTFDS showed 6.6 nM (1 of 6 replicates). The variant GFTLNQYGIS | VIYSDGWRTFYSDSVK | GRVAGTFDS showed 1.5 nM (6 of 6 replicates). With GFTLNSYGGS | VIYSDGRRTFYGDSVK | GRAAGTFES the result was no signal (0 of 6 replicates). With GFTLNSYGIS | VIYSDGMRTFYGDSVK | GKAAGTFDS the result was 92 nM (5 of 6 replicates). For GFTLNDYGIS | VIYSDGRRTQLIDSVK | GRAAGTFDS, the assay gave no signal (0 of 6 replicates).

For GFTLNSYGIS | VIYSDGRRWFYDDSVK | GQLAGTDDS, the assay gave no signal (0 of 6 replicates). With KFTLNSYGIS | VIYSDGRRTFYGDAVK | GGWAGTFDS the result was no signal (0 of 6 replicates). With GFTLDSYGIS | VIYSDGRRTFYGDSVA | GRAAKTFDS the result was no signal (0 of 6 replicates). For KFTLNSYGIS | VIYSDGRRTFYDDSVK | GQLAGTFDS, the assay gave 88 nM (3 of 6 replicates). The variant GFDLNSYGIS | VIYSDGRRTFYGDAVK | GRTAGTFDA showed 600 pM (6 of 6 replicates). The variant GFTLNDYGIS | VIYSPGRRTQYIDSVK | GRAAGTFDS gave 33 nM (1 of 6 replicates). With GFDLNSYGIS | VIYSDGRRTFYGDSVK | GRAAGSFNS the result was no signal (0 of 6 replicates). For HFPLNSYGIS | VIYSDGRRTFYGDSVA | LRAAGLFDS, the assay gave 22 nM (1 of 6 replicates).

The variant GFTLNEYGIS | VIYSDGRRTFYGDSVK | GQAAGTFDN gave 10 nM (6 of 6 replicates). For GFSLNSYGIS | VIYSDGRRTFYADSVK | GQEAGTFDK, the assay gave 750 pM (6 of 6 replicates). For GFSLNEYGIS | VIYSDGRRTFYGDSVK | GVSAGTFDS, the assay gave 5.0 nM (6 of 6 replicates). For GFSLNSYGIS | VIYSDGRRTFYADNVK | GRQAGTFDS, the assay gave 2.2 nM (6 of 6 replicates). With GFTLNSYGIS | VIYSDGRRTFIGDSVK | GRAAGTFDS the result was 39 nM (1 of 6 replicates). The variant GLTLGDYGIS | VIYSDGRRQAYGDSVR | GRAAGTFDS gave no signal (0 of 6 replicates). The variant GFKLNQYGIS | VIYSDGRRTFYADSVK | GRAAGTFDS gave 15 nM (6 of 6 replicates). For GFSLNGYGIS | VIYSDGRRTFYSDSVK | GTAAGTFDS, the assay gave 6.5 nM (6 of 6 replicates).

With GFTLNSYGVS | VIYSDGKRTFYGDSVK | GMAAGTFDS the result was 110 nM (2 of 6 replicates).

Again, the first 7 entries without any signal:

Variant GFTLNSYGIR | VIYSDGRRTFYGDSVK | GNAAGTFDS showed no signal (0 of 6 replicates).
Variant GFTLNDYGIS | VIYSDGRRTFYGDSVK | GRAAGLFDT showed no signal (0 of 6 replicates).
Variant GFSLNDYGIS | VIYSDGRRTFYGDSVK | GRAALTFDT showed no signal (0 of 6 replicates).
Variant GFTLNSYGIS | VDYSDGRRCFYGDSVK | GRAAGTFDS showed no signal (0 of 6 replicates).
Variant GFTLNDYDIS | VAYSDGRRTFYGDSVK | GRAALTFIS showed no signal (0 of 6 replicates).
Variant GFTLNSYGES | VIYATGRRTFYGDSVK | GRAAGTNKS showed no signal (0 of 6 replicates).
Variant GFTLNEYGIS | VIYSDGRRTFYGDSVK | GRQAGTFWS showed no signal (0 of 6 replicates).

Of ten entries with the parent sequence, four were seen in most replicates (averages 2.2 nM to 240 nM), three in one and three in none, so single entries are noisy.
In the paper, a design with two or fewer of six values counts as a poor binder.
The range of this assay differs from that of the first round, and the authors advise against merging the two.
Nonspecific signal, from three strains lacking the peptide, appeared in 1% of pairings of all heavy chain designs, centred on 120 nM (5% of these signals below 7.0 nM); values are not corrected for it.

Source: Li et al. 2023 (doi:10.1038/s41467-023-39022-2), MIT Lincoln Laboratory and A-Alpha Bio; data file from the FLAb repository.